The source of these data is patent US20220177587A1, “METHODS AND USES OF VARIANT CD80 FUSION PROTEINS AND RELATED CONSTRUCTS” (Alpine Immune Sciences, Inc., priority 2018, published 2022).

Sequences of proteins named here, by UniProt entry; tags and fusion partners are left off. Residues count along the entry.
UniProt P16410, 36-223: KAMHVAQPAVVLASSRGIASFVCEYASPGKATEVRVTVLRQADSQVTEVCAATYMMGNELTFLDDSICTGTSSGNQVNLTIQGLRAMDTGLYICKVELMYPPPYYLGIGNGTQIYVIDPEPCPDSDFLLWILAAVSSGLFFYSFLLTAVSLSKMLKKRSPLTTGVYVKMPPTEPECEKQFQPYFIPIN
UniProt Q9NZQ7, 19-290: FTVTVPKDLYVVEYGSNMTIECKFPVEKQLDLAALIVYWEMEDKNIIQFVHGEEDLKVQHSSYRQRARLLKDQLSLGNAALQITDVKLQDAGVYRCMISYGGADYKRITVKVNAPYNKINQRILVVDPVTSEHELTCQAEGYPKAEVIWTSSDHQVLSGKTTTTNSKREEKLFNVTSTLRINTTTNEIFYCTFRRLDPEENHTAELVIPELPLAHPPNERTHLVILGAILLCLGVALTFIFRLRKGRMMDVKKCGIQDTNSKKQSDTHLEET

The EC50 is the concentration needed to bring the measured effect to its halfway point.

The target in one experiment is CD28 (Homo sapiens, UniProt P10747). The experiment in a line: Flow binding to Jurkat/IL2 reporter cells (CD28). On the set-up: host or cells: Jurkat cells expressing an IL-2-luciferase reporter. Conditions: Table E31; flow binding to Jurkats (CD28). As for the experimental part:
(§1) Binding of selected immunomodulatory fusion proteins to cognate binding partners was assessed. […] Cells were sorted in a Bio-Rad S3 Cell Sorter (Bio-Rad Corp., USA) to >98% purity. Jurkat/IL2 reporter cells, which endogenously express CD28, were used to detect binding to CD28.
(§2) For staining and analysis by flow cytometry, 100,000 cells of appropriate transfected cells were plated in 96-well round bottom plates. Cells were spun down and resuspended in staining buffer (phosphate buffered saline (PBS), 1% bovine serum albumin (BSA), and 0.1% sodium azide) for 20 minutes to block non-specific binding. […] Primary staining was performed on ice for 45 minutes, before washing cells in staining buffer twice. Phycoerythrin (PE)-conjugated anti-human Fc (Jackson ImmunoResearch, USA) was diluted 1:150, added to cells and incubated another 30 minutes on ice. Cells were then washed twice with 150 μL/well stain buffer, fixed in 2% formaldehyde/PBS, and analyzed on Intellicyt flow cytometer (Intellicyt Corp., USA). PE Mean Fluorescence Intensity (MFI) was calculated for each cell type with FlowJo Version 10 software (FlowJo LLC, USA).
(§3) Binding assays were carried out to assess the specificity and affinity of multivalent proteins to cell-expressed CTLA-4, CD28, and PD-L1 counter structures.
(§4) The EC50 for binding also was determined.

The next experiment has as its target huCTLA4 (Homo sapiens, UniProt P16410). The experiment in a line: Flow binding to CHO cells stably expressing CTLA4. On the set-up: huCTLA4 and huPD-L1, full-length mammalian surface expression constructs were generated; expressed in transfected cells; host or cells: CHO cells, lentiviral transduction, sorted to >98% purity. Particulars: Table E31; flow binding to CHO cells stably expressing CTLA4; read-out: CTLA4 EC50. As for the experimental part:
as §1, §2, §3, §4

The target of the next experiment is huPD-L1 (Homo sapiens, UniProt Q9NZQ7). The experiment in a line: Flow binding to CHO cells stably expressing PD-L1. Conditions: Table E31. On the set-up: huCTLA4 and huPD-L1, full-length mammalian surface expression constructs were generated; expressed in transfected cells; host or cells: CHO cells, lentiviral transduction, sorted to >98% purity. As for the experimental part:
as §1, §2, §3, §4

B1: CD80 IgV-Fc (protein)
chain: VIHVTKEVKEVATLSCGHNVSVEELAQTRIYWQKEKKMVLTMMSGDMNIWPEYKNRTIFDITNNLSIVILALRPSDEGTYECVVLKYEKDAFKREHLAEVTLSVKAD
modifications: left off: a dimerising Fc or GST; small tags and cut ends
As to B1, the half-maximal effective concentration (EC50) with CD28 stood at 6.5 nM; with huCTLA4 it was 1.3 nM; with huPD-L1, 3.6 nM.
